{
  "sequences": {"note": "Chains of the proteins cited; added tags and fusions are not shown.", "UniProt Q88GI6, entry or part of it": "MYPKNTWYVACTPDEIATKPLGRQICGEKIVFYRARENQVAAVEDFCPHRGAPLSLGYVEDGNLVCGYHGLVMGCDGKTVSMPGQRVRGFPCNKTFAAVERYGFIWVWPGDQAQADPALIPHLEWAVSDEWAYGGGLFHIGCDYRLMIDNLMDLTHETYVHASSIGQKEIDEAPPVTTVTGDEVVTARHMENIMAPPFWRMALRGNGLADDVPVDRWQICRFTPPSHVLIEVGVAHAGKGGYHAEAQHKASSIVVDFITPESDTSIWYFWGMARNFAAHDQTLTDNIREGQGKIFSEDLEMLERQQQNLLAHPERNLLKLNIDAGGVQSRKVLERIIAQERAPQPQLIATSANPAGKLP"},
  "source": "patent US11807873B2",
  "about": "“Conversion of S-lignin compounds to useful intermediates” (Alliance for Sustainable Energy, LLC, priority 2020, dated 2023)",
  "molecular_target": "VanAB (vanillate O-demethylase) (Pseudomonas putida, UniProt Q88GI6)",
  "assay": "VanAB steady-state kinetics, O2 consumption (oxygraph)",
  "settings": "2 μM Ht-VanB, 400 μM NADH, air-saturated HEPES (I = 0.1M), pH 7.5, 25° C; VanA 0.4 μM for vanillate, 1 μM for syringate and 3MGA",
  "data": [
    {"smiles": "COc1cc(C(=O)O)ccc1O", "note": "[VA, vanillate]", "values": [
      {"measurement": "kcat^app", "value": "0.77 ± 0.02", "unit": "s⁻¹"}
    ]}
  ]
}
